Each structure is given as a SMILES string. pEC50, pKi: −log10 of the molar value.

The chains behind the UniProt entries cited, without tags or fusion partners.
UniProt P61169, whole entry: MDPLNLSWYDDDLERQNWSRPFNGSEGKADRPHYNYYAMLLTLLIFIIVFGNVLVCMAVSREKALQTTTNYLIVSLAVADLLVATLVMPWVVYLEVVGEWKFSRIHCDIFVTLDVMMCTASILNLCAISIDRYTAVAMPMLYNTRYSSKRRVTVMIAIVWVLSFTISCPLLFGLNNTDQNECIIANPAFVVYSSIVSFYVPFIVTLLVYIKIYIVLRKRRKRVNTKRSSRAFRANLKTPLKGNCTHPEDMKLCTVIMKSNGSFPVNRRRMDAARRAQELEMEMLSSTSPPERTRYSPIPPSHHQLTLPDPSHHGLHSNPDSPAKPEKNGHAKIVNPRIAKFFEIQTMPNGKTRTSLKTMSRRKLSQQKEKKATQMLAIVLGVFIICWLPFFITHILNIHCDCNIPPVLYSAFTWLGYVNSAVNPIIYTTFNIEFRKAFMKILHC

The target of experiment [1] is T1, D(2) dopamine receptor (Rattus norvegicus, UniProt P61169). Kind of experiment: Agonist activity at rat dopamine D2short receptor expressed in CHO-K1 cells assessed as stimulation of [35S]GTPgammaS binding by liquid scintillation counting. It counts as functional, cell-based.
Experiment [2] deals with T1, D(2) dopamine receptor. Nature of the experiment: Displacement of [3H]raclopride from rat dopamine D2short receptor expressed in CHO-K1 cells by liquid scintillation counting. The format is cell-based.

`CN1CCc2cccc3c2[C@H]1Cc1ccc(O)c(O)c1-3` [APOMORPHINE]: on D(2) dopamine receptor [1], the pEC50 (usually −log10 of the EC50, conventionally taken in molar units) was 7.28. On D(2) dopamine receptor [2], the pKi (commonly −log10 of the Ki, conventionally taken in molar units) is 7.94.

The values are drawn from ChEMBL document CHEMBL1152940 (Bioorg Med Chem, 2009).
